Test results published in PubChem BioAssay AID652106 (National Center for Advancing Translational Sciences (NCATS), 2013).
“And” between values parts separate entries of the source, which are not always exact repeats. Equal values may be shown once. This is a selection; strong and weak results do not stand in their true shares. The source made the active and inactive calls. Calls follow the shape of the dose curve; as a rule, active = well fitted activation curve with a large enough effect; inconclusive = small, poorly fitted or top-dose-only effect; inactive = no such curve, though single readings can be large or run the other way.

Test: qHTS of alpha-syn Inhibitors; also: % of control where 0% means no effect; nearly all actives have a fitted effect of over 65% in size
Conditions: Yeast expressing alpha-synuclein, BacTiter-Glo, 24 h; at 46.1 µM (top of the series)
Excerpt: The goal of this project is to identify new chemical probes capable of reversing the toxicity associated with the Parkinson disease-related protein, alpha-synuclein. Compounds will be selected on their ability to restore growth in yeast cells expressing toxic levels of alpha-synuclein. These compounds will provide a complementary approach to deciphering the tangled mechanisms of toxicity and protection that we have uncovered through genome-wide genetic screens and are beginning to uncover in a large-scale proteomics analysis with mass spectroscopy. To this end, a miniaturized assay was developed to be screened against the Molecular Libraries Small Molecule Repository (MLSMR) to discover alpha-synuclein inhibitors. Please note that in the set-up this yeast-based assay compounds that inhibit as alpha-syn, have a read-out as activators. NIH Chemical Genomics Center [NCGC] NIH Molecular Libraries Probe Centers Network [MLPCN] MLPCN Grant: NS060957 Assay Submitter (PI): Susan Lindquist, Whitehead Institute/MIT
Dispense 2.5 microL yeast galactose medium per 1536-well plate, pin compound, dispense 2.5 microL alpha-synuclein expressing yeast in galactose medium at OD600=0.02 (pregrown in raffinose medium to mid-log phase) per well, incubate for 24 hr at 30 deg C, and cell growth will be measured using 5 microL of Bactiter/Glo reagent to entire plate and read using Luminescence Protocol in ViewLux.

SMILES	growth rescue (activation)
O=C(O)C(=O)c1ccc(N(CCCl)CCCl)cc1	inactive: 0.644%
CCOC(=O)c1ccc(NC(=O)C(C)(CCl)SC)cc1 (centres undefined)	inactive: -2.57%
CSc1ccc(Nc2c([N+](=O)[O-])cc([N+](=O)[O-])cc2[N+](=O)[O-])cc1	inactive: -6.9%
O=C(OC1CN2CCC1CC2)c1cccc([N+](=O)[O-])c1 (centres undefined)	inactive: 0.68%
CCOP(=O)(Nc1cccc2cccnc12)OCC	inactive: -1.03%
CCC(C)N(CC(C)C)C(=S)SC(NC(C)=O)C(Cl)(Cl)Cl (centres undefined)	inactive: 7.21%
Cc1cc(=O)[nH]c(N[N+](=O)[O-])n1	inactive: 3.55%
O=C(OC1CN2CCC1CC2)C12CC3CC(CC(C3)C1)C2 (centres undefined)	inactive: -16.9%
Cc1c2c(nc3ccccc13)SC(C(Cl)Cl)C2 (centres undefined)	inactive: -1.43%
COc1cc(I)ccc1[As](=O)(O)O	inactive: -4.41%
COc1ccc2nc(NP(=O)(c3ccccc3)c3ccccc3)sc2c1	inactive: 5.13%
O=P1(N(CCCl)CCCl)OCCCN1CCCl (centres undefined)	inactive: -1.16%
O=P1(N(CCCl)CCCl)Nc2ccccc2N1	inactive: -12.9%
COc1ccc(N/C(=N/P(=O)(N2CCOCC2)N2CCOCC2)N2CCOCC2)cc1	inactive: -0.692%
O=[N+]([O-])c1cc(Oc2ccc([N+](=O)[O-])cc2C(F)(F)F)cc([N+](=O)[O-])c1	inactive: 5.18%
COc1cc(C(=O)NCC2(N3CCOCC3)CCCCC2)ccc1OCC(C)C	inactive: -1.06%
O=[N+]([O-])c1ccc(-c2cc([N+](=O)[O-])c(O)c([N+](=O)[O-])c2)cc1	inactive: -65.7%
C[As](=O)(O)c1cccc(C(=O)O)c1	inactive: -9.73%
O=[As](O)(c1ccc(O)cc1)c1ccccc1O	inactive: 0.934%
Cc1ccc2nc3c(c(C)c2c1)CC(C(Cl)Cl)S3 (centres undefined)	inactive: -5.53%
Cc1ccc(OP(=O)(Nc2ccc([N+](=O)[O-])cn2)Oc2ccc(C)cc2)cc1	inactive: -4.72%
[N-]=[N+]=NC1CCCCC1NC(=O)c1cc([N+](=O)[O-])cc([N+](=O)[O-])c1 (centres undefined)	inactive: -5.35%

SMILES	growth rescue (activation)
CC(C)c1ccc(OP(=O)(Nc2ccccn2)Oc2ccccc2F)cc1 (centres undefined)	inactive: -0.574%
COC(=O)C1(C)COP(=O)(N2CCCCCC2)OC1 (centres undefined)	inactive: -7.46%
O=Cc1ccc(NCCCl)cc1	inactive: 4.87%
ClCCSc1nnc(-c2cccnc2)o1	inactive: 0.151%
O=[N+]([O-])c1cc([N+](=O)[O-])c(-c2ccn[nH]2)s1	inactive: -8.19%
O=C(OC1CN2CCC1CC2)c1cccc2[nH]cnc12 (centres undefined)	inactive: 0.388%
CCN(CC)C(=S)SC(NC=O)C(Cl)(Cl)Cl (centres undefined)	inactive: 3.44%
CC(C)NC(=O)NP(=O)(Oc1ccccc1)Oc1ccccc1	inactive: -2.99%
CCCC1OP(N)(=O)OCC1CC (centres undefined)	inactive: 0.924%
CC(=O)Nc1ccc([As](=O)(O)O)cc1	inactive: 2.83%
CN(C)P(=O)(N(C)C)n1c(Nc2ccccc2)nnc1-c1ccccc1	inactive: 7.84%
O=P(Nc1nc2ccc(Cl)cc2s1)(c1ccccc1)c1ccccc1	inactive: 11%
CN(C(=O)Cc1ccc(Cl)c(Cl)c1)[C@H]1CCCC[C@@H]1N1CCCC1	inactive: 2.67% and inactive: 0.414% and inactive: -0.458%
Cc1ccc(NP(=O)(Oc2ccccc2F)Oc2ccccc2F)nc1	inactive: -9.12%
CCOP(=O)(Nc1ccccc1)OCC	inactive: 0.494%
Cc1cc(SC(NC(=O)c2ccc(F)cc2)C(Cl)(Cl)Cl)ncn1 (centres undefined)	inactive: -0.426%
CCN(N=Nc1nonc1N)c1nonc1N	inactive: 10.5%
Nc1cccc2ccc([As](=O)(O)O)cc12	inactive: -2.53%
O=[N+]([O-])c1cc2c(cc1[N+](=O)[O-])OCO2	inactive: 0.358%
NC(=O)c1cc([N+](=O)[O-])cc([N+](=O)[O-])c1N	inactive: 2.39%
Cc1ccc(N/C(=N/P(=O)(N2CCOCC2)N2CCOCC2)N2CCOCC2)cc1	inactive: -2.47%
CN(C(=O)Cc1ccc(Cl)c(Cl)c1)[C@H]1CCCC[C@H]1N1CCCC1	inactive: -12.3%

SMILES	growth rescue (activation)
Cc1ccc(OP(=O)(Nc2nccs2)Oc2ccc(C)cc2)cc1	inactive: 0.72%
COc1ccccc1OP(=O)(Nc1ccc(C)cn1)Oc1ccccc1OC	inactive: -5.45%
Clc1ccc(Cl)c(NC2=NCC(CBr)S2)c1 (centres undefined)	inactive: -0.574%
CN1CCCC(OC(=O)C(c2ccccc2)c2ccccc2)C1 (centres undefined)	inactive: -21.8%
CC(C)CC(=O)NC(Sc1ccc(Cl)cc1)C(Cl)(Cl)Cl (centres undefined)	inactive: -25.7%
Nc1cc(N)c2nonc2c1[N+](=O)[O-]	inactive: 1.4%
O=C(NC(Sc1ccncn1)C(Cl)(Cl)Cl)c1ccccc1 (centres undefined)	inactive: -16%
Oc1ccccc1CNc1ccccn1	inactive: -8.21%
O=[N+]([O-])C1C(O)C(O)C([N+](=O)[O-])C(O)C1O (centres undefined)	inactive: 11.5%
COc1ccc(C2=NCC(CBr)S2)cc1 (centres undefined)	inactive: -1.99%
CC(=O)N1C2C3N(C(C)=O)C1C1N(C(C)=O)C(C(N1C(C)=O)N3C(C)=O)N2C(C)=O	inactive: 5.54%
O=[N+]([O-])c1cccc2n[nH]nc12	inactive: -5.7%
O=[N+]([O-])c1cc([N+](=O)[O-])c(CCNc2ccccc2)c([N+](=O)[O-])c1	inactive: 3.77%
CCc1nc2c(n1)c1c(non1O)c1c2no[n+]1[O-]	inactive: -14.4%
Cc1ccc(NP(=O)(Oc2ccccc2)Oc2ccccc2)nc1	inactive: -10.4%
Nc1ccc([As](=O)(O)c2ccc(N)cc2)cc1	inactive: -6.45%
CCN(/C(=N/P(=O)(N1CCOCC1)N1CCOCC1)N1CCOCC1)c1ccc(OC)cc1	inactive: -1.73%
CN(C)C(=O)OCCc1n(C)cc[n+]1C	inactive: 3.62%
CC(C)=N/N=C(\N)N[N+](=O)[O-]	inactive: -0.0528%
CC(C)c1nc(Nc2ccccc2)n(P(=O)(N(C)C)N(C)C)n1	inactive: -0.437%
